In BindingDB's records for 22227210 (Slovak Academy of Sciences, 2012) one finds Ki data, which are given here for 1 molecule.

The chains behind the UniProt entries cited, without tags or fusion partners. Residues count along the entry.
UniProt A6YCJ1, 23-292 limits assumed: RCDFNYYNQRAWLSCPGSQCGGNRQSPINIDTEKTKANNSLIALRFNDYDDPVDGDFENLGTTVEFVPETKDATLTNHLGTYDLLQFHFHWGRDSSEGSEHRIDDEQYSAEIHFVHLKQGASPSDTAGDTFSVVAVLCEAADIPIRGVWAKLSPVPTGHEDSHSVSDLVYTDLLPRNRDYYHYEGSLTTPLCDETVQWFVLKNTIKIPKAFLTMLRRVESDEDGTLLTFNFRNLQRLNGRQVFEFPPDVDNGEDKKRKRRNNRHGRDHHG

Broadly, the Ki is the dissociation constant of the complex between target and ligand, obtained from inhibition or displacement.

For the test, the target named is Carbonic anhydrase (Astrosclera willeyana, UniProt A6YCJ1). Kind of test: Inhibition of Astrosclera willeyana recombinant GST-tagged astrosclerin 3 expressed in Escherichia coli BL21-DE3-RIPL cells preincubated for 15 mins measured for 10 to 100 secs by stopped flow CO2 hydration assay.

Take `[O]=[V]([OH])([OH])[O][V](=[O])([OH])[OH]`: the inhibition constant (Ki) was determined as 640 µM.
